The data set is described as follows: Dissociation constant, pKa of the compound. It counts as physicochemical.

One may read the pKa as the negative logarithm of the acid dissociation constant. Read a low pKa as a stronger acid or weaker base.

Compound `Cc1cnc(NC(=O)C2=C(O)c3ccccc3S(=O)(=O)N2C)s1` [MELOXICAM] displayed a pKa of 4.08. Consider `Nc1ccc(S(=O)(=O)Nc2ncccn2)cc1` [SULFADIAZINE], for which the pKa was 6.4.

Source of the values: ChEMBL document CHEMBL1153781, “Prediction of volume of distribution values in human using immobilized artificial membrane partitioning coefficients, the fraction of compound ionized and plasma protein binding data” (Eur J Med Chem, 2009).
